Assay results published in US11261152B2, “Inhibitors of the N-terminal domain of the androgen receptor” (The Regents of the University of California, priority 2017, dated 2022).

Tested on: AR transcriptional activity (MMTV reporter)
Experiment: MMTV reporter assay
Type: cell-based
Details: Table 3 grade HIGH/MED/LOW, grades not defined

For `CNC(=O)c1ccc(N2C(=S)N(c3ccc(C#N)c(C(F)(F)F)c3)C(=O)C2(C)C)cc1F` [MDV 3100, enzalutamide, reference compound], the MMTV was “HIGH”.
